Our source for the IC50 values is ChEMBL document CHEMBL5321194 (J Med Chem, 2023).

By UniProt entry, the sequences of proteins in these tests, tags left out. Where a name states a change or a piece, a line headed by the entry shows the natural chain unless it says otherwise.
UniProt P49759: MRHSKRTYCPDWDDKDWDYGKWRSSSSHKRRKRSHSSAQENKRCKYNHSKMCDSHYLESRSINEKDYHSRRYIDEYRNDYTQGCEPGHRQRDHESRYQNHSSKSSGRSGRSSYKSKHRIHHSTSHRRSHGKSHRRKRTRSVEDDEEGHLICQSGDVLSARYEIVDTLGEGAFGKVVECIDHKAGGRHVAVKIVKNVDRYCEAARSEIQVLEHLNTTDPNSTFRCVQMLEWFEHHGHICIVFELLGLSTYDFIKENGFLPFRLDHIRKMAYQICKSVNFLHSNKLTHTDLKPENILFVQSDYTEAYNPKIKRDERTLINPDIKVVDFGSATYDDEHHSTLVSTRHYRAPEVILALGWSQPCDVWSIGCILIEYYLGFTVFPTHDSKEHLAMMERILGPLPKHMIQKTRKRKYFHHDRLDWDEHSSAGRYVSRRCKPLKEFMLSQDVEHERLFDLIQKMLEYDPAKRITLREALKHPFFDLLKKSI

In the test the target is Dual specificity protein kinase CLK1 (Homo sapiens, UniProt P49759). Nature of the test: Inhibition of human CLK1 using myelin basic protein as substrate in presence of [gamma-33p]-ATP by radiometric hotspot kinase.

As usually defined, the IC50 is the concentration needed to halve the response being measured. Take `CCc1cc2c(cc1-c1cccc(S(=O)(=O)F)c1)C(C)(C)c1[nH]c3cc(C#N)ccc3c1C2=O`: the IC50 stood at 422 nM.
